Luc counter – Kinase-Glo luciferase inhibition (counter-screen). AID 1379. Potency, µM (highest dose often 38.3 µM), for inactives: top-dose activity change, negative = inhibition, actives largely listed as inhibitors. actives 0.28% (n = 200,000). Kinase-Glo luciferase, ATP luminescence, 8 min; note: potency is the fitted concentration of half-maximal effect; % is set by controls: 0 for no effect and ±100 for the full control effect; nearly all actives have a fitted effect of over 60% in size
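Luminescence was the read-out, taken after 8-minute incubation at ambient temperature. Luciferase turned over luciferin with 10 uM ATP in imidazole pH 7.2 buffer containing KCl, MgCl2, Tween 20 and BSA.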
RXFP1 ag – RXFP1 (human) receptor agonism. actives 0.3% (n = 370,000). HEK293T-RXFP1 cAMP TR-FRET, 30 min; response scale: percent of porcine relaxin response, buffer zero. Potency, µM (highest dose often 57.5 µM), without a hit: at the top dose activation, actives largely listed as activators. Q9HBX9; note: potency is the fitted concentration of half-maximal effect; % is set by controls: 0 for no effect and ±100 for the full control effect; nearly all actives have a fitted effect of over 60% in size
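HEK293T cells stably expressing RXFP1 were pretreated with the PDE4 inhibitor Ro 20174, exposed to compounds for 30 min at 37C, lysed, and cAMP was read by TR-FRET. Data normalized to buffer (basal) and 29 nM porcine relaxin (100%).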
GALK inh – blocks human galactokinase activity. Purified GALK, Kinase-Glo residual ATP luminescence. Potency, µM (top dose mostly 57.5 µM), for inactives: top-dose activity change, negative = inhibition, hits mostly inhibitors. actives 0.007% (n = 270,000). AID 1868; note: potency is the fitted concentration of half-maximal effect; % is set by controls: 0 for no effect and ±100 for the full control effect
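Quantitative HTS: GALK 5 nM, ATP 35 uM, galactose 100 uM, 1 h room temperature, then luciferase-based ATP detection.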
RXFP1 antagonist – blocks the human relaxin receptor RXFP1; actives 0.59% (n = 350,000); HEK293-RXFP1, relaxin-stimulated cAMP HTRF, 30 min; hits give low values; Q9HBX9; activity change, negative = inhibition, % at 57.5 µM;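 active = activity change of -60% or lower, but not beyond a set lower limit; inconclusive = change between -60% and -40%, or beyond the set limit; inactive = change above -40%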; note: % is set by controls: 0 for no effect and ±100 for the full control effect
miR-21 reporter – miR-21 reporter, rising signal. 340,000 tested, under 10 active. Potency, µM (highest dose often 38.3 µM), for the others: at the highest dose reporter change, positive = more light. HeLa miR-21 FLuc reporter, luciferase, 48 h. AID 2288; active = well fitted rising curve with a large enough effect; inconclusive = small, poorly fitted or top-dose-only effect; inactive = no such curve, though single readings can be large or run the other way;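 further: % of control where 0% means no effect; miR-21 action dims this reporter so a rising signal means less miR-21 action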
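Luminescence from a firefly luciferase reporter carrying a miR-21 binding site downstream, stably expressed under a CMV promoter in HeLa cells that make miR-21 endogenously, reports miRNA modulation after 48 h compound exposure up to approximately 40uM final.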
PKM2 act – activators of human pyruvate kinase M2; purified PKM2, Kinase-Glo ATP luminescence, activation; response scale: 0% is enzyme alone, no compound; P14618; actives 0.34% (n = 260,000); Potency, µM (titrated, usually from 57.5 µM), without a hit: at the highest dose activation, hits mostly activators; AID 1631; note: potency is the fitted concentration of half-maximal effect; % is set by controls: 0 for no effect and ±100 for the full control effect; nearly all actives have a fitted effect of over 55% in size
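Purified hPK-M2 (>95%) run at intermediate activity with 0.1 mM ADP and 0.5 mM PEP in 50 mM imidazole pH 7.2, KCl, MgCl2; 1 h room temperature. ATP formed read by Kinase-Glo luminescence; normalized to uninhibited and no-enzyme controls.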
HeLa tox – reduces HeLa cell viability in PKM2 activator counter-screen; shares compounds with PKM2 act; HeLa viability, CellTiter-Glo ATP luminescence, 24 h; activity change, negative = cytotoxicity, % at 57.5 µM; 230 tested, under 10 active; note: % of control where 0% means no effect
Starred values were filed as active, the others as inactive; u = inconclusive; x = not tested or not shown. In the library only some 0.92% were active in any assay of this set; here they are far more common. Unless noted, calls come from the whole dose curve; as a rule, active = well fitted curve in the direction sought with a large enough effect; inconclusive = small, poorly fitted or top-dose-only effect, or another doubt; inactive = no such curve, though single readings can be large; an effect the other way counts as inactive or inconclusive.

SMILES	Luc counter	RXFP1 ag	GALK inh	RXFP1 antagonist	miR-21 reporter	PKM2 act	HeLa tox
CCc1nnc(NC(=O)CSc2nc3c([nH]c4ccccc43)c(=O)n2-c2ccc(Cl)cc2)s1	x	6%	x	x	-4%	x	x
COc1cc(C2C3=C(CCCC3=O)Nc3c2c(C)nn3-c2cccc(C)c2)cc(OC)c1O (stereo not drawn)	x	0%	-1%	-9	-8%	7.1µM*	u
COc1ccc([N+](=O)[O-])cc1N(CC(O)CN1C(=O)NC(C)(C)C1=O)S(=O)(=O)c1ccccc1 (stereo not drawn)	x	2%	-2%	21	-1%	-1%	x
Clc1ccc(SCc2cn3ccccc3n2)cc1	0%	0%	-8%	-8	-61%	0%	x
c1ccc2c(SCc3cn4ccccc4n3)nncc2c1	-3%	8%	2%	-4	-64%	4.5µM*	-13
COc1ccc2[nH]c(=O)c(-c3noc(-c4ccccc4)n3)cc2c1	-3%	-1%	4%	-6	-37%	11µM*	-27
CCC(C)NC(=O)CSc1nnc(-c2cc(-c3cccs3)nc3ccccc23)o1 (stereo not drawn)	1%	3%	3%	-12	6%	-7%	x
Cc1cc2c(s1)c1cnn(Cc3cccc(Cl)c3)c(=O)c1n2C	x	x	x	x	x	x	-1
Cn1c2cc(Br)sc2c2cnn(Cc3ccc(F)cc3)c(=O)c21	x	1%	x	x	x	x	x
Cc1cc2c(s1)c1cnn(Cc3cccc(F)c3)c(=O)c1n2C	x	x	x	x	x	x	-3
Cc1ccccc1NS(=O)(=O)c1ccc2c(c1)n(C)c(=O)n2C	-1%	1%	-2%	5	-3%	2.5µM*	3
c1ccc2[nH]c(CSc3nnc(-c4ccncc4)o3)nc2c1	-1%	3%	3%	6	-6%	1.8µM*	-1
Oc1ccc(Nc2nc(-c3ccc4ccccc4c3)cs2)cc1	-3%	0%	-4%	x	-1%	-12%	x
Oc1ccc(-c2nc(-c3ccc(O)c(O)c3)cs2)cc1	-8%	4%	5%	-11	-30%	3.2µM*	-5
CCCCOc1ccc(C(=O)N(C)CC(=O)Nc2ccc(C)cc2)cc1	x	1%	-1%	-4	2%	x	x
O=C(Oc1ccc(=O)[nH]n1)c1ccccc1	x	x	x	-5	x	x	x
Cn1c2ccccc2c2ncn(Cc3ccc(F)cc3)c(=O)c21	x	4%	0%	-16	-2%	1%	x
Cn1c2ccsc2c2ncn(Cc3ccccc3F)c(=O)c21	x	1%	x	x	x	x	u
CCCCCn1c(C(C)NC(=O)c2ccccc2)nc2ccccc21 (stereo not drawn)	x	-4%	x	x	9%	x	x
O=C(NCc1ccc2c(c1)OCO2)c1ccc(NS(=O)(=O)c2ccc3c(c2)OCCO3)cc1	0%	4%	-3%	-2	-5%	4.5µM*	1
O=C(NCc1ccc2c(c1)OCO2)c1ccc(S(=O)(=O)N2CCCCC2)cc1	2%	-2%	3%	3	7%	0%	x
Cn1c2cc(S(C)=O)sc2c2cnn(Cc3ccccc3F)c(=O)c21 (stereo not drawn)	x	x	x	x	x	x	10
CC(=O)c1cc2c(s1)c1cnn(Cc3ccccc3F)c(=O)c1n2C	x	x	x	x	x	x	-1
FC(F)(F)C(F)(F)c1nc2nc(Cl)c(Cl)nc2[nH]1	x	x	x	-8	x	x	x
O=C(c1cc(Cl)c(=O)n(Cc2ccc(Cl)cc2)c1)N1CCOCC1	-5%	3%	0%	29	-4%	30%	x

Some of the entries above, reformatted.
> Cc1ccccc1NS(=O)(=O)c1ccc2c(c1)n(C)c(=O)n2C
- Luc counter: -1%
- RXFP1 ag: 1%
- GALK inh: -2%
- RXFP1 antagonist: 5
- miR-21 reporter: -3%
- PKM2 act: 2.5µM*
- HeLa tox: 3

> COc1cc(C2C3=C(CCCC3=O)Nc3c2c(C)nn3-c2cccc(C)c2)cc(OC)c1O (stereo not drawn)
- Luc counter: x
- RXFP1 ag: 0%
- GALK inh: -1%
- RXFP1 antagonist: -9
- miR-21 reporter: -8%
- PKM2 act: 7.1µM*
- HeLa tox: u

> CC(=O)c1cc2c(s1)c1cnn(Cc3ccccc3F)c(=O)c1n2C
- Luc counter: x
- RXFP1 ag: x
- GALK inh: x
- RXFP1 antagonist: x
- miR-21 reporter: x
- PKM2 act: x
- HeLa tox: -1

> Cn1c2ccsc2c2ncn(Cc3ccccc3F)c(=O)c21
- Luc counter: x
- RXFP1 ag: 1%
- GALK inh: x
- RXFP1 antagonist: x
- miR-21 reporter: x
- PKM2 act: x
- HeLa tox: u

Next part.
SMILES	Luc counter	RXFP1 ag	GALK inh	RXFP1 antagonist	miR-21 reporter	PKM2 act	HeLa tox
Cc1cccc(N2CCN(C(=O)c3c(C)nn(Cc4ccccc4Cl)c3C)CC2)c1C	2%	-1%	1%	-30	18%	3.5µM*	u
O=C(CSc1ccccc1)N1CCN(S(=O)(=O)c2ccccc2F)CC1	x	0%	1%	11	2%	3.2µM*	0
CCOC(=O)/C(C#N)=C/c1cn(CCC(=O)O)nc1-c1ccc(Cl)cc1	5%	0%	-2%	9	-1%	5%	x
O=c1c2ccc(Cl)cc2[nH]c(=S)n1Cc1cccnc1	-2%	7%	-3%	-1	-4%	3.2µM*	3
CNc1c([N+](=O)[O-])cnn1-c1ccc(Cl)cc1	-3%	5%	2%	-13	-3%	7.9µM*	8
O=C(c1ccco1)N1CCN(c2ccc(N3CCCCC3)nn2)CC1	x	0%	x	0	x	x	x
COc1ccc(S(=O)(=O)c2ccc(O)cc2)cc1	-8%	1%	2%	-3	6%	4.5µM*	0
